In this assay the test system is cancer and normal cells. As to the kind of experiment: Cell viability assay. In kind it is cell-based, human. The conditions noted are these: 72 h.

Take “HSA: human serum albumin, carrier protein of the formulation”: the “effect on viability of cancer and normal cells” value is reported as “not caused by HSA”.
